Laboratory results as given in patent publication US8637528B2, “Use of PDE7 inhibitors for the treatment of movement disorders” (Omeros Corporation, priority 2007, dated 2014).
Where “and” joins values, the source holds several entries; their conditions need not be identical. Equal values may be shown once.

Amino acid sequences for entries named in this document (tags omitted). A change or cut given only in a name is not applied to a line headed by its entry. Residues count along the entry.
UniProt Q13946: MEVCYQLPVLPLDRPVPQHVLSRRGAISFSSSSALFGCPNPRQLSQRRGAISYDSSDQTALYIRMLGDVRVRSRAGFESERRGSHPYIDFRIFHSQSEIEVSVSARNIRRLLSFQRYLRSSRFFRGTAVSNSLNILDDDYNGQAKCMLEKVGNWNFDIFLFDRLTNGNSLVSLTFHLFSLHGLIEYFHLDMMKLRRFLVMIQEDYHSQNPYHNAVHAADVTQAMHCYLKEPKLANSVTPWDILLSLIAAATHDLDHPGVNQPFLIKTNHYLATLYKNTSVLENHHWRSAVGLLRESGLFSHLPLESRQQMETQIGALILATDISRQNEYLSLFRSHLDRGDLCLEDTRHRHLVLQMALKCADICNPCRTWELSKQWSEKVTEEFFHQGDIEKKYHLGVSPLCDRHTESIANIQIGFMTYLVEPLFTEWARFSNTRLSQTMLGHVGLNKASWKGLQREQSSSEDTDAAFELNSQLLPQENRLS
UniProt Q9NP56, 107-450 limits assumed: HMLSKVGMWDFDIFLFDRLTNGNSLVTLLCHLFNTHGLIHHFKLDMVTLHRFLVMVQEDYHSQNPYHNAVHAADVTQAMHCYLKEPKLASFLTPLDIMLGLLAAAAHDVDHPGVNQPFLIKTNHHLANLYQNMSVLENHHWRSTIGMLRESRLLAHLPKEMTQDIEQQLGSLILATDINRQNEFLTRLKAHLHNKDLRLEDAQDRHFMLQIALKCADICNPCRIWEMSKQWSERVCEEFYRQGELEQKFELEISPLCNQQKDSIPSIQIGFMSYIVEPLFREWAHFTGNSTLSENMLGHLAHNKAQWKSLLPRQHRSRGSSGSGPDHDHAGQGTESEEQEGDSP

What was measured:
PDE7A = PDE7A (Homo sapiens (Human), UniProt Q13946); assay: PDE7 phosphodiesterase scintillation proximity assay (SPA), PDE7A; format: biochemical
Source text: The recombinant human PDE7A enzyme was purchased from BPS Bioscience (Catalog #60070), Genbank Accession No. NM_002603 (amino acid 121-end) with an N-terminal GST tag, MW=66 kDa, expressed in a Baculovirus infected Sf9 cell expression system, with a specific activity of 302 μmol/min/μg. The recombinant human PDE7B enzyme was purchased from BPS Bioscience (Catalog #60071), Genbank Accession No. NM_018945 (amino acid 107-end), with an N-terminal GST tag, MW=66 kDa, expressed in a Baculovirus infected Sf9 cell expression system, with a specific activity of 53 pmol/min/μg. The assay method used was a scintillation proximity assay (SPA) (obtained from GE Healthcare, Product Code TRKQ7100), with [^3H]-cGMP as the substrate (SPA manual, Amersham Biosciences). […] The mixture was shaken, allowed to settle for 3 hours, then the production of [^3H]-5′AMP from the substrate was quantitated by scintillation counting in a Wallac®plate counter. The results in net cpm values were fitted to a four parameter logistic model using Excel Solver®.

PDE7B = PDE7B (Homo sapiens (Human), UniProt Q9NP56); assay: PDE7 phosphodiesterase scintillation proximity assay (SPA), PDE7B; format: biochemical
Description: The compounds listed in TABLE 1 were tested for inhibitory activity in a PDE7 phosphodiesterase assay performed using recombinant human PDE7A and 7B enzymes expressed in a baculoviral system. The recombinant human PDE7A enzyme was purchased from BPS Bioscience (Catalog #60070), Genbank Accession No. NM_002603 (amino acid 121-end) with an N-terminal GST tag, MW=66 kDa, expressed in a Baculovirus infected Sf9 cell expression system, with a specific activity of 302 μmol/min/μg. The recombinant human PDE7B enzyme was purchased from BPS Bioscience (Catalog #60071), Genbank Accession No. NM_018945 (amino acid 107-end), with an N-terminal GST tag, MW=66 kDa, expressed in a Baculovirus infected Sf9 cell expression system, with a specific activity of 53 pmol/min/μg.
The assay method used was a scintillation proximity assay (SPA) (obtained from GE Healthcare, Product Code TRKQ7100), with [^3H]-cGMP as the substrate (SPA manual, Amersham Biosciences). Purified human PDE7A and PDE7B (obtained from BPS Bioscience, San Diego, Calif.) were diluted and stored in a solution containing 25 mM Tris-Cl (pH 8.0), 100 mM NaCl, 0.05% Tween 20, 50% glycerol, and 3 mM DTT. […]
The mixture was shaken, allowed to settle for 3 hours, then the production of [^3H]-5′AMP from the substrate was quantitated by scintillation counting in a Wallac®plate counter. […]

| IC50 (PDE7A) | IC50 (PDE7B) [nM] | Structure (SMILES) |
| --- | --- | --- |
| 5.7 nM and 5.67 nM |  | COc1cc(N)ccc1-c1nc2c(C)nn(C3CCCCC3)c2c(=O)[nH]1 [OM056] |
| 140 nM | 144 | CC(=O)Nc1ccc(-c2nn(C)/c(=N/C3CCCCC3)s2)cc1 [OM956] |
